Values quoted from earlier work as cited in patent US5202314A, “10-thioethyl-steroids” (Roussel Uclaf, priority 1991, dated 1993).

Tested on: Aromatase
Details: attacks enzymatic processes other than that leading from androgens to estrogens; cited from earlier work

CCC1(c2ccc(N)cc2)CCC(=O)NC1=O (stereo not shown) [Aminoglutethimide]
specificity to Aromatase: not to be specific to Aromatase
